Consider one compound from ChEMBL document CHEMBL5344481, “Design, synthesis and biological evaluation of rhein-piperazine-furanone hybrids as potential anticancer agents” (RSC Med Chem, 2024).

Structures are written as SMILES.

For experiment [1], the species on record is Homo sapiens. The experiment can be described thus: Selectivity index, ratio of IC50 for human HEK-293T cells to IC50 for human 786-O cells.
The species entered for experiment [2] is Homo sapiens. The experiment can be described thus: Selectivity index, ratio of IC50 for human WI-38 cells to IC50 for human PC-9 cells.
The species named for experiment [3] is Homo sapiens. Put plainly: Selectivity index, ratio of IC50 for human KGN cells to IC50 for human SK-OV-3 cells.

On to `COC1OC(=O)C(Cl)=C1N1CCN(C(=O)c2cc(OC(C)=O)c3c(c2)C(=O)c2cccc(OC(C)=O)c2C3=O)CC1` (stereo not drawn), for which the figures for the Ratio IC50 in the experiment filed under Homo sapiens [1], in the experiment filed under Homo sapiens [2] and in the experiment filed under Homo sapiens [3] were 0, 12 and 1, respectively.
